This is a selection; strong and weak results do not stand in their true shares. Some structures show a salt or complex split into parts, the way the source records it. Active and inactive are the calls of the source.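 The calls were made as follows: active = drop in luminescence signal, shown as inhibition above about 50% in the replicate tests (limit read from the data, passing the limit was not always enough); inconclusive = probably only some replicates passing the limit; inactive = the rest.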
system: Drosophila bursicon receptor LGR2 (rickets); assay: LGR2 cAMP reporter signal reduction – cell-based, HEK293, CRE-luciferase reporter, bursicon stimulation, primary screen (AID 720647); settings: bursicon-stimulated, 4 h, at 9.99 µM, hits give high values;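 also: agonist challenge used bursicon conditioned medium at about half maximal strength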

Row | SMILES | inhibition
1 | Cc1cc(C)cc(OP(C)(N)=O)c1 (stereo unspecified) | inactive: 11.1%
2 | COc1ccccc1OP(C)(=O)Nc1cc(Cl)ccc1C (stereo unspecified) | inactive: -0.055%
3 | CCOC(=O)c1ccc(NP(C)(=O)Oc2ccccc2)cc1 (stereo unspecified) | inactive: -6.99%
4 | O=[N+]([O-])c1ccc2c(c1)C=Nc1ccccc1O2 | inactive: 8.53%
5 | Cc1cccc(C)c1OP(C)(N)=O (stereo unspecified) | inactive: -5.01%
6 | CC(C)(C)c1ccc(OP(C)(=O)Nc2ccc(SC(F)(F)F)cc2)cc1 (stereo unspecified) | inactive: -2.52%
7 | O=[N+]([O-])c1cc([N+](=O)[O-])c(Nc2cccnc2)c([N+](=O)[O-])c1 | inactive: 16.4%
8 | COc1ccccc1-c1ccccn1.O=[N+]([O-])c1cc([N+](=O)[O-])c(O)c([N+](=O)[O-])c1 | inactive: -8.86%
9 | CCN(CC)CCCOC(=O)C(O)(c1ccccc1)c1ccccc1 | inactive: -7.44%
10 | CP(=O)(Nc1ccccn1)Oc1ccc(Cl)cc1 (stereo unspecified) | inactive: 13.5%
11 | CCOC(=O)c1ccc(NP(C)(=O)Oc2ccc(OC)cc2)cc1 (stereo unspecified) | inactive: 0.641%
12 | Cc1cc(C)cc(OP(C)(=O)Nc2ccc(SC(F)(F)F)cc2)c1 (stereo unspecified) | inactive: 11.9%
13 | CP(=O)(NC(=O)Nc1ccccc1)Oc1ccccc1 (stereo unspecified) | inactive: 7.15%
14 | CP(=O)(Oc1ccccc1)OC(c1ccccc1)C(F)(F)F (stereo unspecified) | inactive: -2.77%
15 | Cc1cccc(C)c1OP(C)(=O)Nc1ccc(SC(F)(F)F)cc1 (stereo unspecified) | inactive: 11.6%
16 | CP(=O)(Nc1ccc(SC(F)(F)F)cc1)Oc1ccc(Cl)cc1 (stereo unspecified) | inactive: -8.6%
17 | CP(=O)(Nc1ccccc1Br)Oc1ccccc1 (stereo unspecified) | inactive: -5.29%
18 | COc1ccccc1OP(C)(=O)Nc1ccccc1 (stereo unspecified) | inactive: -10.2%
19 | COc1ccc(-c2ccccn2)cc1.O=[N+]([O-])c1cc([N+](=O)[O-])c(O)c([N+](=O)[O-])c1 | inactive: -12.4%
20 | CP(=O)(Nc1ccc(SC(F)(F)F)cc1)Oc1ccccc1 (stereo unspecified) | inactive: 5.74%
21 | CCCOc1ccc(NP(C)(=O)Oc2ccc(Cl)cc2)cc1 (stereo unspecified) | inactive: -0.332%
22 | CN1CCCCC1COC(=O)C1(O)c2ccccc2CCc2ccccc21 (stereo unspecified) | inactive: 9.71%
23 | CCOC(=O)C(CC)C1=NC(C)(C)Cc2ccccc21.O=[N+]([O-])c1cc([N+](=O)[O-])c(O)c([N+](=O)[O-])c1 (stereo unspecified) | inactive: -10.4%
24 | O=[N+]([O-])c1cc([N+](=O)[O-])c(Nc2nnnn2CCO)c([N+](=O)[O-])c1 | inactive: 2.71%

Row | SMILES | inhibition
25 | CN(Cc1cccnc1)C(=O)COc1ccc(Cl)c(Cl)c1.O=[N+]([O-])c1cc([N+](=O)[O-])c(O)c([N+](=O)[O-])c1 | inactive: 8.99%
26 | O=[N+]([O-])c1cc([N+](=O)[O-])c(-n2nnc3ccccc32)c([N+](=O)[O-])c1 | inactive: 17.4%
27 | CP(=O)(Nc1cccc(Br)c1)Oc1ccccc1 (stereo unspecified) | inactive: -14.1%
28 | Cc1cc(C)cc(OP(C)(=O)Nc2ccccn2)c1 (stereo unspecified) | inactive: 18.1%
29 | CCOC(=O)c1ccc(NP(C)(=O)Oc2cc(C)cc(C)c2)cc1 (stereo unspecified) | inactive: 6.63%
30 | Cc1cc(C)cc(OP(C)(=O)Nc2ccc(C)cc2C)c1 (stereo unspecified) | inactive: 3.65%
31 | COc1ccccc1OP(C)(=O)Nc1cccc(Br)c1 (stereo unspecified) | inactive: -3.88%
32 | CC1=NCCc2c1[nH]c1ccccc21.O=[N+]([O-])c1cc([N+](=O)[O-])c(O)c([N+](=O)[O-])c1 | inactive: 12.5%
33 | O=C(O)c1cccc(Nc2c([N+](=O)[O-])cc([N+](=O)[O-])cc2[N+](=O)[O-])c1 | inactive: 4.35%
34 | CCCCCOc1ccc(NP(C)(=O)Oc2ccc(Cl)cc2Cl)cc1 (stereo unspecified) | inactive: 0.148%
35 | O=[N+]([O-])c1cc([N+](=O)[O-])c(OC2CCCCC2O)c([N+](=O)[O-])c1 (stereo unspecified) | inactive: 10.1%
36 | Cc1c([N+](=O)[O-])cc([N+](=O)[O-])c(Br)c1[N+](=O)[O-] | inactive: 4.07%
37 | CCOC(=O)c1ccc(NP(C)(=O)Oc2ccc(F)cc2)cc1 (stereo unspecified) | inactive: -7.38%
38 | COc1ccc(OP(C)(=O)Nc2ccc(SC(F)(F)F)cc2)cc1 (stereo unspecified) | inactive: 1.7%
39 | CCN(CC)CCCNc1ccccc1[N+](=O)[O-].O=[N+]([O-])c1cc([N+](=O)[O-])c(O)c([N+](=O)[O-])c1 | inactive: 5.15%
40 | COc1ccc2c(c1O)-c1c(O)c(OC)cc3c1[C@H](C2)[N+](C)(C)CC3.O=[N+]([O-])c1cc([N+](=O)[O-])c([O-])c([N+](=O)[O-])c1[O-] | inactive: -15.5%
41 | O=C(OC1CN2CCC1CC2)c1ccc([N+](=O)[O-])cc1 (stereo unspecified) | inactive: 15.6%
42 | O=C(OCCN1CCN(CCOCc2ccccc2)CC1)C(O)(c1ccccc1)c1ccccc1 | inactive: -0.251%
43 | CP(=O)(Nc1ccccc1F)Oc1ccccc1 (stereo unspecified) | inactive: -4.23%
44 | CC(C)c1ccc(OP(C)(=O)Nc2ccc(SC(F)(F)F)cc2)cc1 (stereo unspecified) | inactive: 17.9%
45 | O=[N+]([O-])c1cc([N+](=O)[O-])c(Nc2ccc(Cl)cc2)c([N+](=O)[O-])c1 | inactive: 22.9%
46 | Cc1ccccc1NP(C)(=O)Nc1ccccc1C | inactive: -0.969%
47 | O=[N+]([O-])c1cc([N+](=O)[O-])c(C(F)(F)F)c([N+](=O)[O-])c1O | inactive: -8.53%
48 | CCOP(=O)(CC)OCC | inactive: 20%

Row | SMILES | inhibition
49 | CP(=O)(Nc1ccc(SC(F)(F)F)cc1)Oc1ccc(F)cc1 (stereo unspecified) | inactive: 2.55%
50 | Cc1c(C(c2ccc3c(c2)OCO3)c2c(C)n(C)n(-c3ccccc3)c2=O)c(=O)n(-c2ccccc2)n1C.O=[N+]([O-])c1cc([N+](=O)[O-])c(O)c([N+](=O)[O-])c1 | inactive: -9.18%
51 | O=[N+]([O-])c1ccc(OP2(=O)COCCO2)cc1 (stereo unspecified) | inactive: -0.43%
52 | O=[N+]([O-])c1cc([N+](=O)[O-])c(NCC2CCS(=O)(=O)C2)c([N+](=O)[O-])c1 (stereo unspecified) | inactive: 14.1%
53 | Cc1cc(-c2cccc3ccccc23)c(C)cn1.O=[N+]([O-])c1cc([N+](=O)[O-])c(O)c([N+](=O)[O-])c1 | inactive: -12.9%
54 | COc1ccc(NP(C)(=O)Oc2ccccc2OC)cc1 (stereo unspecified) | inactive: -24.5%
55 | CCOC(=O)c1ccc(NP(C)(=O)Oc2ccc(Cl)cc2)cc1 (stereo unspecified) | inactive: -8.15%
56 | CP(=O)(OC12CC3CC(CC(C3)C1)C2)OC12CC3CC(CC(C3)C1)C2 | inactive: 3.67%
57 | CN(C)C(=O)c1c([N+](=O)[O-])cc([N+](=O)[O-])cc1[N+](=O)[O-] | inactive: 24.6%
58 | CC(C)(C)c1ccc(OP(C)(=O)O)cc1 | inactive: -1.15%
59 | COc1ccccc1OP(C)(=O)Nc1ccccc1Br (stereo unspecified) | inactive: 8.36%
60 | O=C(OCCCN1CCCC1)C(O)(c1ccccc1)C1CCCCC1 (stereo unspecified) | inactive: -6.42%
61 | CCc1ccc(OP(C)(=O)Nc2cccnc2)cc1 (stereo unspecified) | inactive: 15.2%
62 | COc1ccc(OP(C)(=O)Nc2ccc(Br)cc2)cc1 (stereo unspecified) | inactive: 2.95%
63 | O=[N+]([O-])c1cc([N+](=O)[O-])c(Nc2ccccn2)c([N+](=O)[O-])c1 | inactive: -21.2%
64 | COc1ccc(OP(C)(=O)Nc2ccccn2)cc1 (stereo unspecified) | inactive: 2.92%
65 | COc1ccccc1OP(C)(=O)Nc1ccc(Br)cc1 (stereo unspecified) | inactive: -0.114%
66 | CP(=O)(OCCOc1ccccc1)OCCOc1ccccc1 | inactive: -7.28%
67 | CCCCCCCCCCCCCCCC1C[N+](C)(C)CCOP(C)(=O)O1 (stereo unspecified) | inactive: 14.3%
68 | CP(=O)(Nc1ccc(Cl)cc1Cl)Oc1ccccc1 (stereo unspecified) | inactive: -0.705%
69 | COc1ccc(OP(C)(=O)Nc2ccccc2Br)cc1 (stereo unspecified) | inactive: -1.58%
70 | Cc1cc(C)cc(OP(C)(=O)Nc2cccc(C(F)(F)F)c2)c1 (stereo unspecified) | inactive: 7.2%
71 | O=C1C(O)=C([N+](=O)[O-])C(=O)C(O)=C1[N+](=O)[O-] | inactive: 3.56%
